Source: patent publication US20230165841A1, “PREVENTION AND INTERVENTION OF INFARCT EXPANSION FOLLOWING HEMORRHAGIC INFARCTIONS” (CEDARS-SINAI MEDICAL CENTER, priority 2020, published 2023)

System: cardiomyocyte culture
Experiment: Total ROS in cardiomyocyte culture treated with Hx, DFP, hemin
Assay type: cell-based
Conditions: versus hemin and pre-treatment with DFP
From the text: FIG. 16 is a bar graph depicting the total ROS production (μM/mg protein/min) in cardiomyocyte culture treated with different agents or control, indicating the importance of physiochemical state of degradation products of hemorrhage being the therapeutic targets.
Physiochemical features of degradation products of hemorrhage are important for determining optimal therapy. An early byproduct of hemorrhage is extracellular heme (an Fe^2+ complex), which is eventually internalized by cardiomyocytes. Applicant tested whether pretreating cardiomyocytes in culture with hemopexin (Hx), a heme scavenger, can rescue the cells from oxidative stress compared to an intracellular Fe^3+ chelator deferiprone (DFP). Methods: Studies were performed in an cardiomyocyte culture. Total ROS following treatment with Hx, DFP, hemin, hemin+Hx, hemin+DFP were measured. […] Summary: Location of hemorrhagic byproducts (intra- vs. extra-cellular) and oxidation state are critical features that need to be accounted for in the development of therapies against hMI. To develop an optimal ICT strategy against hMI we will identify the physiochemical features of hemorrhagic byproducts in rats with hMI sacrificed at different time points.

Substance: hemopexin
- Total ROS, pre-treatment and then exposing to hemin: significantly reduced
